Patent publication US4952607A, “Copper complex for treating cancer” (priority 1986, dated 1990)

Tested on: Ehrlich carcinoma cells
Details: dose levels used

## CC(C)c1cc(C(=O)[O-])c(O)c(C(C)C)c1.CC(C)c1cc(C(=O)[O-])c(O)c(C(C)C)c1.[Cu+2] [CuDIPS, Cu(II) (3,5-diisopropylsalicylate)2]
  toxicity to the host: non-toxic to the host at the dose levels used
